# Test results: article PMC9363231, “High‐resolution analysis of individual spike peptide‐specific CD4 ^+ T‐cell responses in vaccine recipients and COVID‐19 patients” (Clinical & Translational Immunology, 2022)
# The chains behind the UniProt entries cited, without tags or fusion partners. Residues count along the entry.
# UniProt P01903, 26-254: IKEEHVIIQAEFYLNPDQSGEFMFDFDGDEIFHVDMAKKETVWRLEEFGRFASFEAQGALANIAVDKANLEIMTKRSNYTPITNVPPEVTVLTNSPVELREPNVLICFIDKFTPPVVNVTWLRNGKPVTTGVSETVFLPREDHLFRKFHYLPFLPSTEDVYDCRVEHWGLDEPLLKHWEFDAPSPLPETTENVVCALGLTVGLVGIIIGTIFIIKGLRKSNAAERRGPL
# UniProt P01911, 30-266: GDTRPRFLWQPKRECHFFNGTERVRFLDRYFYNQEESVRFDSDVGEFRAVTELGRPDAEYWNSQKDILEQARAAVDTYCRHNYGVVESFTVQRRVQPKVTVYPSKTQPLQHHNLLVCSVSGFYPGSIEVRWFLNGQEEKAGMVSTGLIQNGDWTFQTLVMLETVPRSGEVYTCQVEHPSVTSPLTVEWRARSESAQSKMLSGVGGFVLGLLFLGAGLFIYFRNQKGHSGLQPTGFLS
# Molecular target: HLA-DRB1*15:01 (Homo sapiens, UniProt P01903+P01911)
# Assay: biochemical
# Type: binding
smiles,measurement,value
CC[C@H](C)[C@H](NC(=O)[C@H](CCCNC(=N)N)NC(=O)[C@H](CCCCN)NC(=O)[C@H](CCCNC(=N)N)NC(=O)[C@H](CC(N)=O)NC(=O)[C@H](Cc1c[nH]c2ccccc12)NC(=O)[C@H](C)NC(=O)[C@@H](N)Cc1ccc(O)cc1)C(=O)N[C@@H](CO)C(=O)N[C@@H](CC(N)=O)C(=O)N[C@@H](CS)C(=O)N[C@H](C(=O)N[C@@H](C)C(=O)N[C@@H](CC(=O)O)C(=O)N[C@@H](Cc1ccc(O)cc1)C(=O)O)C(C)C [compound 71],IC50,851 nM
